Test results published in patent US20140227357A1, “FILL FORMULATIONS AND CAPSULES AND METHOD OF USE TO AVOID MIGRATION OF FILL INTO OR THROUGH THE SHELL” (CAPSUGEL BELGIUM NV, priority 2011, published 2014).

Assay: Stability testing (loss of volatile compound as measured by weight decrease), 40° C. ventilated oven
Type: physicochemical
Conditions: 50 μL fill, non sealed size 3 LICAPS, 40° C. oven, after 5 days
Method: Stability testing (loss of volatile compound as measured by weight decrease): Six (6) LICAPS® Capsules were manually filled with 2-butanol. Each LICAPS® capsule was individually weighed at time zero, stored in a ventilated oven at 40° C., and then reweighed at defined time points. […] The results are represented graphically in FIG. 4.
Methods: Size 3 LICAPS® capsules (n=6) were manually filled with 2-butanol (50 μL or 225 μL). The LICAPS® capsules were either not sealed or sealed on CIFS® equipment. Each capsule was individually weighed at time zero and placed in an oven at 40° C. and reweighted at defined time points.
Stability testing (loss of volatile compound as measured by weight decrease): Six LICAPS® capsules were manually filled with the composition described in Table 7, Each UCAPS® capsule was individually weighed at time zero, stored at 40° C. in a ventilated oven, and reweighed at defined time points. The results are represented graphically in FIG. 11.
Methods: LICAPS® size 3 capsules (n=6) were tilled with a formulation of 2-butanol +0.75% HPC (50 μL). The LICAPS® capsules were either not sealed or manually sealed. Each capsule was individually weighted at time zero and placed in a oven at 40° C. for a week and then reweidtted at defined time points.

2-butanol [Formulation 2-butanol]
weight of capsules (loss of fill): significant decrease in weight; also recorded: important decrease in weight

“Also recorded” adds a separate entry of the source.
